Patent US10472320B2, “Process to prepare phenolic ethylenediamine diacetic acid compounds” (Akzo Nobel Chemicals International B.V., priority 2015, dated 2019)

Details: after precipitate formed; pH about 10.5; expressed as H4-o,o-HBED
Protocol: (§1) Phenol was extracted from the reaction mixture with methyl isobutyl ketone (250 ml and 3 times 125 ml).
as §1
(§2) Phenol was extracted from the reaction mixture with methyl isobutyl ketone (75 ml and 3 times 50 ml).
(§3) Phenol was extracted from the reaction mixture with methyl isobutyl ketone (100 ml and 3 times 50 ml).
as §3, §2
Phenol was extracted from the reaction mixture with methyl isobutyl ketone (85 ml and 3 times 50 ml).
as §2

## O=C(O)CN(CCN(CC(=O)O)Cc1ccccc1O)Cc1ccccc1O [Comparative Example 1, N,N′-di(2-hydroxybenzyl)ethylenediamine-N,N′-diacetic acid, reference compound]
  remaining concentration of o,o-HBED in solution: approximately 6.1%
